What was measured:
Test in all cases: CCK8 cell viability assay
Type in all cases: cell-based, human
[1] = test system: HL-7702 normal liver cells
Procedure: (§1) Cell viability assay using the CCK8 reagent (Bimake, Shanghai, China) was conducted according to the manufacturer’s instructions. The cell proliferation data were used to calculate the cell viability. Briefly, HepG2, SMMC-7721, and HL-7702 cells with a density of 5 × 10^3 cells/well were seeded into each well of 96-well plates and incubated overnight. BCP stock solution (400 mM) was prepared in ethanol, and DOX and DDP stock solutions (20 mM) were individually prepared in DMSO. […] The dosages of DOX and DDP were previously determined ([Jehan et al., 2020]; [Farooq et al., 2023]). […] After 48 h, 10 µL of CCK8 reagent was added to each well, followed by 2 h incubation at 37°C and measurement of absorbance at 450 nm using a microplate reader (Molecular Devices, LLC.). […] The antiproliferative effects of BCP in combination with DOX and DDP were evaluated by the combination index (CI) using the formula: […] The effects of the combinatorial inhibition were visualized by isobologram analyses ([Tallarida, 2001]). The IC50 values of each cell line were arranged for the isobologram analysis so that the IC50 of DOX represents a point on the X-axis and the IC50 of BCP represents a point on the Y-axis. A line was drawn to link the two IC50 points. Each dot in the isobologram represented an IC50 value of a BCP and DOX combination. The dots above, on, or below the line indicate the “antagonistic,” “additive” and “synergistic” effects, respectively. The same method was used to obtain the CI value for the cotreatment of BCP and DDP.

HepG2 cells = settings: HepG2, cotreatment with 150 μM BCP vs DOX or DDP alone
Procedure: as §1

SMMC-7721 cells = settings: SMMC-7721, cotreatment with 150 μM BCP vs DOX or DDP alone
Procedure: as §1

COc1cccc2c1C(=O)c1c(O)c3c(c(O)c1C2=O)C[C@@](O)(C(=O)CO)C[C@@H]3O[C@H]1C[C@H](N)[C@H](O)[C@H](C)O1 [DOX, doxorubicin]
combination index (CI) ([1]; HL-7702, cotreatment with 75 μM BCP): 1.01 | fold reduction of IC50 in cotreatment from individual treatment ([1]; HL-7702, cotreatment with 150 μM BCP vs DOX or DDP alone): less than 1.5 fold | fold lower IC50 in cotreatment than in treatment alone (HepG2 cells): over 9 fold | fold lower IC50 in cotreatment than in treatment alone (SMMC-7721 cells): over 9 fold

Source: article PMC11671526, “β-caryophyllene sensitizes hepatocellular carcinoma cells to chemotherapeutics and inhibits cell malignancy through targeting MAPK signaling pathway” (Frontiers in Pharmacology, 2024)
